According to patent publication US20260207641A1, “COMBINATION THERAPY FOR CANCER USING ROS-ACTIVATED PRODRUGS AND ROS-AMPLIFYING THERAPEUTICS” (UWM Research Foundation, Inc., priority 2023, published 2026):

Test system: MDA-MB-468 cells
Assay: Cytotoxicity dose response (CellTiter-Glo, 48 h)
Format: cell-based, human

SMILES: O=c1c(O)c(-c2ccc(O)c(O)c2)oc2cc(O)cc(O)c12 [Quercetin]
- SI (Selectivity Index): 1
- SI of Prodrug Combined with Maximum Safety Dose of Pro-oxidant: 3
